Chains of the proteins cited; added tags and fusions are not shown.
UniProt P61073, whole entry: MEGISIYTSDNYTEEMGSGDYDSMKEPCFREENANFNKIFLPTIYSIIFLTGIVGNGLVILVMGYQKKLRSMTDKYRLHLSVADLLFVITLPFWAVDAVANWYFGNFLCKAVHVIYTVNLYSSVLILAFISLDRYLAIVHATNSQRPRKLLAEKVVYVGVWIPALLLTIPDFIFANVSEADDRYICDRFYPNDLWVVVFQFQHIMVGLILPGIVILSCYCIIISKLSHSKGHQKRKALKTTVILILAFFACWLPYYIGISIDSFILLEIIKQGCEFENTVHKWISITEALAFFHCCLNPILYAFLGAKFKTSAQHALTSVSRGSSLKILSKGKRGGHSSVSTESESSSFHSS

According to patent publication US20220273751A1, “GPCR HETEROMER INHIBITORS AND USES THEREOF” (GPCR THERAPEUTICS, INC., priority 2019, published 2022):

Target: T1, CXCR4 (Homo sapiens, UniProt P61073)
T1 construct: expressed in transfected cells; host or cells: MDA-MB-231 (adenoviral transduction)
Assay: Calcium mobilization assay, MDA-MB-231 cells transduced with CXCR4 only
Assay type: cell-based
Details: FIG. 5A; CXCL12 15 nM, salmeterol 100 nM

OCc1cc(C(O)CNCCCCCCOCCCCc2ccccc2)ccc1O (stereo not shown) [salmeterol, Salmeterol]
calcium response, single agonist, cells expressing CXCR4: did not induce calcium response
